# Tests used:
# [1] = system: Nalm6-GD2 expressing luciferase leukaemia; assay: In vivo leukaemia progression after CAR-T cell injection; settings: CAR-T cells expanded with i9 (3 uM) or i12 (1 uM); vs vehicle
# [2] = system: Nalm6-GD2 expressing luciferase; assay: In vitro activity of expanded CAR-T cells against target cell; settings: CAR-T cells treated with i9 (3 uM) or i12 (1 uM); vs vehicle treated CAR-T cells
Compound,in vivo tumor control [1],survival of tumor bearing mice [1],anti-tumor activity against the target cell [2],"mice still alive (B16-OVA tumors; by day 30, OT-I (expanded with Taz), no control mice survived up to day 24) [%]",median tumor size relative to that treated with OT-I (expanded without Taz) (B16-OVA tumors; treatment day 20)
C=CC(=O)N1CCN(C(=O)CNc2cc(I)c(Cl)cc2O)CC1 [K-Ras(G12C) inhibitor 12],better in vivo tumor control,prolonged survival,higher anti-tumor activity,–,–
"CCN(c1cc(-c2ccc(CN3CCOCC3)cc2)cc(C(=O)NCc2c(C)cc(C)[nH]c2=O)c1C)C1CCOCC1 [Taz, Tazemetostat]",–,–,–,> 80,1/8
K-Ras(G12C) Inhibitor 9,better in vivo tumor control,prolonged survival,higher anti-tumor activity,–,–

# From patent publication US20250027930A1, “SMALL MOLECULES FOR REPROGRAMING ANTI-TUMOR IMMUNITY OF T CELLS” (THE SCRIPPS RESEARCH INSTITUTE, priority 2021, published 2025)
